Data reported in patent publication US7053189B2 (Oregon Health & Sciences University, priority 1990, dated 2006).

By UniProt entry, the sequences of proteins in these tests, tags left out. Chains listed by the source or under a name are the forms on record and can include a tag or linker. Residues count along the entry.
UniProt A0ACM8QMZ9, 1-443: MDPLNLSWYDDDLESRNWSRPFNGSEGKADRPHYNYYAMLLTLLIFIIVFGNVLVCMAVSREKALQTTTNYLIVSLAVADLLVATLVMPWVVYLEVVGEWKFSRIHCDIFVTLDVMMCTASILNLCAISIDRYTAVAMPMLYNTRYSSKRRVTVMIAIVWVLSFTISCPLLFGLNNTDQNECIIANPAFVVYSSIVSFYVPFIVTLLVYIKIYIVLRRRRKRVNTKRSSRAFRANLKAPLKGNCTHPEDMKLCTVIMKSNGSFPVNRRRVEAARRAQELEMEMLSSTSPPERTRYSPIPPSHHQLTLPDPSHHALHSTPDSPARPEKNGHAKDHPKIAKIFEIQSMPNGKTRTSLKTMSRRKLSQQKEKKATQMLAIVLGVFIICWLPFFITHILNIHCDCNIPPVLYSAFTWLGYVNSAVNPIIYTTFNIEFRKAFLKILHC
UniProt P14416, whole entry: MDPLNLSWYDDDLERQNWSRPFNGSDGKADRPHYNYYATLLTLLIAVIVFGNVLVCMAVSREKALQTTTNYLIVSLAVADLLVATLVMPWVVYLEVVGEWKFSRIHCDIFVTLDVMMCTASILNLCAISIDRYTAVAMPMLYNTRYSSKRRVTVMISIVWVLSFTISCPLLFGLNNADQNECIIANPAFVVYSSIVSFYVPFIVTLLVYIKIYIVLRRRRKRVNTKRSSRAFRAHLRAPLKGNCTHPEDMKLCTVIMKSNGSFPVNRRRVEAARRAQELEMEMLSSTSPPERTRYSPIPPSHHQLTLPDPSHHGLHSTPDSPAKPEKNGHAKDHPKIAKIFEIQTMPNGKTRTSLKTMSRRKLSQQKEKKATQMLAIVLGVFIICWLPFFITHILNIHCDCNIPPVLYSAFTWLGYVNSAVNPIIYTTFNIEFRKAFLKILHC
UniProt P21917, with tags, fused parts or gaps P18R/DEL271-302/N396T: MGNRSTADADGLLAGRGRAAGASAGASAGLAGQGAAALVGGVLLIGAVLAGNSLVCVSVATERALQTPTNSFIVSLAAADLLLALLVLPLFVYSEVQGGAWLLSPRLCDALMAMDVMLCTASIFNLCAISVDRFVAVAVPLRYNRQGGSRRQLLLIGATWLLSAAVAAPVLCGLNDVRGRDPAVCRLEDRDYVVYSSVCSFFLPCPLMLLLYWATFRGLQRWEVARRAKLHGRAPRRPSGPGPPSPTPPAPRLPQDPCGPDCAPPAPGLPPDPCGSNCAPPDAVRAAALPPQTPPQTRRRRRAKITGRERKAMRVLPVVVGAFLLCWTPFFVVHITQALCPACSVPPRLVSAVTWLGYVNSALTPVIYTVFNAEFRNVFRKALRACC
UniProt P61169, whole entry: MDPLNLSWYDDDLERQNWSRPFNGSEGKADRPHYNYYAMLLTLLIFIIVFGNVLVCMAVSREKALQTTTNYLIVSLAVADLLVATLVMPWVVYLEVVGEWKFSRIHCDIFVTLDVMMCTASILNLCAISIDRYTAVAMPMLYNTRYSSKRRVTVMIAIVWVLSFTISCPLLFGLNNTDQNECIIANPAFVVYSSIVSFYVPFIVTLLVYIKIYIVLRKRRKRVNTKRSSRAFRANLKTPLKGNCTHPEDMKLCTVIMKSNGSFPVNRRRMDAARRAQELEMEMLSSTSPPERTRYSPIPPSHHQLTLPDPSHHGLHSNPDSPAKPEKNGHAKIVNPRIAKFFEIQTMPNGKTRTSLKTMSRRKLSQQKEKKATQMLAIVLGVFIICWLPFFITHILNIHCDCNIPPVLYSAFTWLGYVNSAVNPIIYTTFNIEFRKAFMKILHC

Experiments:
[1] = target: D2 in pig anterior pituitary homogenates (Sus scrofa, UniProt A0ACM8QMZ9)
human D2 (long) = human D2 (long) (Homo sapiens, UniProt P14416); assay: D2 dissociation constants, human D2 receptor expressed in GH(4)ZR(7) cells
[2] = target: human D4 dopamine receptor (Homo sapiens, UniProt P21917, DEL271-302/N396T/P18R); assay: [3H]spiperone binding to membranes of COS-7 cells transfected with human D4 receptor construct; details: read-out: D4Ki
rat D2 (long) = rat D2 (long) (Rattus norvegicus, UniProt P61169); assay: D2 dissociation constants, rat D2 (long)

`OCCN1CCN(CCCN2c3ccccc3Sc3ccc(C(F)(F)F)cc32)CC1` was tested, and the “[formula] (ratio D2Ki to D4Ki)” value [1] was 0.01.

`CCN1CCC[C@H]1CNC(=O)c1c(O)c(Cl)cc(Cl)c1OC` was tested, and the Ki (human D2 (long)) was 1.6 nM.

Work on `CCN1CCC[C@H]1CNC(=O)c1cc(S(N)(=O)=O)ccc1OC` yielded a Ki [2] of 63 nM.

In the case of `Oc1cc2c(cc1O)C(c1ccccc1)CNCC2` (stereo not shown) [SKF-38393], the Ki (rat D2 (long)) is reported as 9560 nM.
